Laboratory results published in patent publication US20140323418A1.

Target: full length active recombinant SYK enzyme (Homo sapiens, UniProt P43405)
Experiment: Inhibition of Syk tyrosine phosphorylation activity (LANCE TR-FRET kinase assay)
Assay type: biochemical
Settings: read-out: Syk IC50; 1 nM SYK, 550 nM substrate, 100 μM ATP, 1 hour room temperature

NC(=O)c1cnc(N[C@H]2[C@@H](N)CCCC2(F)F)nc1Nc1cccc(-n2nccn2)c1
IC50: 1 to 10 nM
